Experimental findings from US20210094920A1, “NR2B LIGANDS; METHOD OF MAKING; AND USE THEREOF” (THE UNITED STATES OF AMERICA, AS REPRESENTED BY THE …, priority 2018, published 2021) are described below.

Amino acid sequences for entries named in this document (tags omitted). Residues count along the entry.
UniProt Q00960, 27-1482: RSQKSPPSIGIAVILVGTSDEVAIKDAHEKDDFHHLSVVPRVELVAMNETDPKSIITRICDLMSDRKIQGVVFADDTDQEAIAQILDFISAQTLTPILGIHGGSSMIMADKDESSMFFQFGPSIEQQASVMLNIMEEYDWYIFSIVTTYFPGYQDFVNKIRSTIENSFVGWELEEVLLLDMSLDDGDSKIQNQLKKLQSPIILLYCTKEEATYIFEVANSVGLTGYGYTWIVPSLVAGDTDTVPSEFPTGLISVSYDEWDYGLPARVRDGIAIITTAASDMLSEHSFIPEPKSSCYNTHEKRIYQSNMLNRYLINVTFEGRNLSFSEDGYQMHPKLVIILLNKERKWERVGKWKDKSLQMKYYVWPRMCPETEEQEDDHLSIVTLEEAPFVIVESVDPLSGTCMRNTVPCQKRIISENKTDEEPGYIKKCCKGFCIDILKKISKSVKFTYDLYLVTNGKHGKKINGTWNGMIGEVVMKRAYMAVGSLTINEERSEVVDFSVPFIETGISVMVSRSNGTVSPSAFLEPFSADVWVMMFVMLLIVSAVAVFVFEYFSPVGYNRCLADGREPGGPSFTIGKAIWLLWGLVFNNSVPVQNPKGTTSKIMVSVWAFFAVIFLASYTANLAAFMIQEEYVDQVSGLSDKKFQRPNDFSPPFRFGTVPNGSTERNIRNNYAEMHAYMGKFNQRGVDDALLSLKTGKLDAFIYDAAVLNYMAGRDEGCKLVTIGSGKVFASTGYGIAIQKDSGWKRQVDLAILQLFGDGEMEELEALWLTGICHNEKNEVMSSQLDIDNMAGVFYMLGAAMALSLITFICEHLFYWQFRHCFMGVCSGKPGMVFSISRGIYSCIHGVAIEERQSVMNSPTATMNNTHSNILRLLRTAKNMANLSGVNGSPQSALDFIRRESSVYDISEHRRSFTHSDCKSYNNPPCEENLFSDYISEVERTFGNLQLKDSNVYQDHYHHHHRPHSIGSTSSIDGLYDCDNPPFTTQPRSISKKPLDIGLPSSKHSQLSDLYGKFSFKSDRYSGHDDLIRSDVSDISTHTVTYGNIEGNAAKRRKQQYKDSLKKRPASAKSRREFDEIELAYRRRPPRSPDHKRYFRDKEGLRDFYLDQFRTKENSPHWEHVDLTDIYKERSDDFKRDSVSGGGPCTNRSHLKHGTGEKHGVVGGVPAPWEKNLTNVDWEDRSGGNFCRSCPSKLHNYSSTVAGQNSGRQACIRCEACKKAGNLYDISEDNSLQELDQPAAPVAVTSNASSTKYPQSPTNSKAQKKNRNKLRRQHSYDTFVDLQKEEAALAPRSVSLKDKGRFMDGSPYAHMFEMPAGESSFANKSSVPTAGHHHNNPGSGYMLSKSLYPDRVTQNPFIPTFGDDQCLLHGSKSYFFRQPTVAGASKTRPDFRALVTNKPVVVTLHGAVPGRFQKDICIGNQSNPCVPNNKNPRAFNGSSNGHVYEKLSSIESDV

In the experiment the target is NR2B subunits in NMDA receptors (Rattus norvegicus, UniProt P35439+Q00960). Briefly: PET imaging of brain in rats (baseline, preblock, displacement). To be noted: i.v. at 10 min after radioligand injection.

Consider `C[C@@H](CN1CCC(Cc2ccccc2)CC1)[C@@H](O)c1ccc(O)cc1` [Ro 25 6981, 4-[(1R,2S)-3-(4-Benzylpiperidin-1-yl)-1-hydroxy-2-methylpropyl]phenol, reference compound], for which the “effect of displacement on brain radioactivity washout” value (radioligand [^11C]NR2B-Me, 0.01-3 mg/kg) was “accelerated brain radioactivity washout in a dose-dependent manner” and the “effect of displacement on brain radioactivity washout” value (radioligand [^11C]NR2B-MeI, 0.01-1.25 mg/kg) is “accelerated brain radioactivity washout in a dose-dependent manner”.
